# Values of other authors, collected in paper PMC9667546, “Selective Inhibition of Bruton’s Tyrosine Kinase by a Designed Covalent Ligand Leads to Potent Therapeutic Efficacy in Blood Cancers Relative to Clinically Used Inhibitors” (ACS Pharmacology & Translational Science, 2022).
# Protein sequences, listed by entry. Tags and fused reporters are not part of them. Lines headed by an entry give the natural chain unless they say otherwise; changes in a name come on top.
# UniProt Q06187: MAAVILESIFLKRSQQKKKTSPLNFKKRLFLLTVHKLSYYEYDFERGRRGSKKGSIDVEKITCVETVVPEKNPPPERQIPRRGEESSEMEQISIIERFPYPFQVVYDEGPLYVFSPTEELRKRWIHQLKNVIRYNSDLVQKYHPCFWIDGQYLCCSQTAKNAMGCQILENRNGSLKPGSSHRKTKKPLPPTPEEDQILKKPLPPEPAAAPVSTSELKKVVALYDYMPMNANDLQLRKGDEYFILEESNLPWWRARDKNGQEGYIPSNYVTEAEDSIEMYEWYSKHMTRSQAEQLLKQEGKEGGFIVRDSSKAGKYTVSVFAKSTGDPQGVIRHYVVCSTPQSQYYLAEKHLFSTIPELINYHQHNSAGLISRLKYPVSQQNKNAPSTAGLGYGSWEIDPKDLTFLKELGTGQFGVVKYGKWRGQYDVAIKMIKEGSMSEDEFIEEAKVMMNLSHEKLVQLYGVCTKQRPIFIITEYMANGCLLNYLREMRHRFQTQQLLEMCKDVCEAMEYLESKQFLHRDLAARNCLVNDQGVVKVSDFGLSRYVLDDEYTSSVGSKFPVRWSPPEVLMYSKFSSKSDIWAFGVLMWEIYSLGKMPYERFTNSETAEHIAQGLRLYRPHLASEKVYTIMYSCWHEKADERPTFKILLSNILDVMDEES
# Target: BTK (Homo sapiens, UniProt Q06187)
# Parameters: purchased Promega Corporation V2941
# Conditions: Table S3 heat map; ref SI 1-19; cited from earlier work
compound,measurement,value
"C[C@H]1CN(C2COC2)CCN1c1ccc(Nc2cc(-c3ccnc(N4CCn5c(cc6c5CC(C)(C)C6)C4=O)c3CO)cn(C)c2=O)nc1 [Fenebrutinib, fenebrutinib]",IC50,2.3 nM
